Experimental findings from patent US9346769B2, “Tetrazolones as inhibitors of fatty acid synthase” (Infinity Pharmaceuticals, Inc., priority 2010, dated 2016) are described below.

Protein sequences, listed by entry. Tags and fused reporters are not part of them.
UniProt P49327, whole entry: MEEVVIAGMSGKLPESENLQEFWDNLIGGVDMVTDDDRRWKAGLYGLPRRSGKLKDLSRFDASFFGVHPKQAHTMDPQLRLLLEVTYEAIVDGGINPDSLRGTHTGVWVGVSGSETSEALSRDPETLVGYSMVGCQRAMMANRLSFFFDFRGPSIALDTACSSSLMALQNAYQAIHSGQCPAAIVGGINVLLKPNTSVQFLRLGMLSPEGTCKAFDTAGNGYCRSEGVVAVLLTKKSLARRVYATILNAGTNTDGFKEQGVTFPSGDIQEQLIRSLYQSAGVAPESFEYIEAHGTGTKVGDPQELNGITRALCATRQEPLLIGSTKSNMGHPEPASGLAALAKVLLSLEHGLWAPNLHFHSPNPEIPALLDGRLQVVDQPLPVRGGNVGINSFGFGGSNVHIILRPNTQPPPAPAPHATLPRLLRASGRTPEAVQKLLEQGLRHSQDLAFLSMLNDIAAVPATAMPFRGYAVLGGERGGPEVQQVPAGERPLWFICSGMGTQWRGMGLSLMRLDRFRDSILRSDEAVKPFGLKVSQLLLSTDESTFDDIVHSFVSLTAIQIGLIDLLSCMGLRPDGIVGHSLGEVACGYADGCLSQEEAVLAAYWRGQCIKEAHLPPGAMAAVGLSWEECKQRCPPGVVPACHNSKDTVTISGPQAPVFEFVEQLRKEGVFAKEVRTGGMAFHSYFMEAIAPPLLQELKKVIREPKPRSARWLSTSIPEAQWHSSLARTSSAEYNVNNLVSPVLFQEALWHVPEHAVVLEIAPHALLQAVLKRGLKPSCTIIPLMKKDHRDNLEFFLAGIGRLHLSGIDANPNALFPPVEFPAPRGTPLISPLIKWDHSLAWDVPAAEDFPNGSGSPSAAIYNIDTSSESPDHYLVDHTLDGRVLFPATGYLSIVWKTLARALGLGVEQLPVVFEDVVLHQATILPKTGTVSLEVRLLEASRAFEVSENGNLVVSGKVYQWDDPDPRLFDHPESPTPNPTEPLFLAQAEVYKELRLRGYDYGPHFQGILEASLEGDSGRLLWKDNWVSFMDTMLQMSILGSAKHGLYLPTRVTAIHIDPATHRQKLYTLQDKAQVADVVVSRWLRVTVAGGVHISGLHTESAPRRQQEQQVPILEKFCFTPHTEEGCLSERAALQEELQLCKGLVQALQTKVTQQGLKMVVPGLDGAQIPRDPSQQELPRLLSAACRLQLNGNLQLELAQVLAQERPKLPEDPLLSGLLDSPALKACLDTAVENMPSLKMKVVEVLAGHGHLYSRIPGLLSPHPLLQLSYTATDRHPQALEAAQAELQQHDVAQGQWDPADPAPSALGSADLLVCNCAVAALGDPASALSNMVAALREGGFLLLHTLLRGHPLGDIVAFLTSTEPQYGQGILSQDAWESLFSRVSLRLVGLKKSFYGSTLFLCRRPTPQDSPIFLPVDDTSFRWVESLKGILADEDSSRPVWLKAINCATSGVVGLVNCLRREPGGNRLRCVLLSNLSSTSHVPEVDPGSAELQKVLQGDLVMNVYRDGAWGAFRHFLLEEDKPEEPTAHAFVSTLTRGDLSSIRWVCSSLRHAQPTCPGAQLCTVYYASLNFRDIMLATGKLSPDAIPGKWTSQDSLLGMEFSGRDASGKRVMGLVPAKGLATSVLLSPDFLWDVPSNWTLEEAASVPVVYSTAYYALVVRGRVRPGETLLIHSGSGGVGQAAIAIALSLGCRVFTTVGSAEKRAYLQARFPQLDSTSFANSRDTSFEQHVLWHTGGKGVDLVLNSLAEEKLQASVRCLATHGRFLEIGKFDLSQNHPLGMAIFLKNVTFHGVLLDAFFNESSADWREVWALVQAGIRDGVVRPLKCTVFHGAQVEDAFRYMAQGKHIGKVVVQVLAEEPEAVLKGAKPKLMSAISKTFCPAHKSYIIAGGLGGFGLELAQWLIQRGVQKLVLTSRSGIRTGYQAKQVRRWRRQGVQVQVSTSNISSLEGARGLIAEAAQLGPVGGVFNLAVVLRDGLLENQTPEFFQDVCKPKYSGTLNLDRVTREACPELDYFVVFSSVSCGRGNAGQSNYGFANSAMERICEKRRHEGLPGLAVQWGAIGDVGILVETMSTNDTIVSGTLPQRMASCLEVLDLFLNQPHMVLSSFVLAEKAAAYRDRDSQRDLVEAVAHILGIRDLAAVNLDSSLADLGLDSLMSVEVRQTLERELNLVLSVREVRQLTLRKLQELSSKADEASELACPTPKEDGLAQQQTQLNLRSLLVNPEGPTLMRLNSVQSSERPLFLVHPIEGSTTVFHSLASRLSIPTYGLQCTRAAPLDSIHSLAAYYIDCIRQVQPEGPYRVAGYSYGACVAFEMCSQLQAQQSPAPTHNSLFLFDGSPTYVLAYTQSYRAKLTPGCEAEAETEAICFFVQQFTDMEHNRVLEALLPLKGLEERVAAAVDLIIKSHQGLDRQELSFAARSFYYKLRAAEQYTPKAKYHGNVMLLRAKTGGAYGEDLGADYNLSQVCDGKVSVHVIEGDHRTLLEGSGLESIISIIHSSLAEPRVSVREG

Assay [1] has as its target T1, human FASN (Homo sapiens, UniProt P49327). Description: FASN Scintillation Proximity Flashplate Assay. The following applies: read-out: ACTIVITY (IC50, FASN Scintillation Proximity Flashplate Assay); human FASN purified from SKBR3 cells; unstarred symbols. How it is done:
(§1) Human FASN protein (SEQ ID NO. 1) was purified from SKBR3 cells using procedures modified from those in Jayakumar et al. PNAS 1995, 92:8695-8699. SKBR3 cells were obtained from ATCC and grown in DMEM high glucose medium supplemented with 10% FBS, 1 μg/mL bovine pancreas insulin, 100 U/mL penicillin and 100 µg/mL streptomycin. The confluent cells were trypsinized and washed three times with PBS buffer before frozen in liquid N2 and stored at −80° C. Frozen cells were thawed on ice and resuspended in lysis buffer (25 mM Tris-HCl, pH 7.0, 15 mM NaCl, 1 mM EDTA, and 1 mM DTT) with protease inhibitors. The cells were lysed by sonication, and the cell debris was removed by centrifugation at 20,000 rpm for 30 min. […] Each fraction was analyzed by SDS-PAGE and FASN NADPH consumption assay. […]
Acetyl-coenzyme A, malonyl-coenzyme A, NADPH, bovine gamma globulin, and ORLISTAT were purchased from Sigma (St. Louis, Mo.). […] The plates were read in a Wallac 1450 Microbeta Plus liquid scintillation counter (Perkin Elmer, Waltham, Mass.), and counts per minute (CPM) were collected over 2 min. Each inhibitor well CPM was compared to the maximum FASN enzyme activity (Max) CPM and the background (Min) CPM, as measured by omission of FASN enzyme in the background well. % Inhibition values were calculated, and curves were fitted by a four-parameter logistic function to yield IC50 values: […]

In assay [2] the target is T1, human FASN. Description: FASN NADPH Consumption Assay. The settings on record: read-out: ACTIVITY (IC50, FASN NADPH Consumption Assay, starred); human FASN purified from SKBR3 cells; starred symbols. On the procedure:
as §1, with “inhibitors.” for “inhibitors. The cells were lysed by sonication, and the cell debris was removed by centrifugation at 20,000 rpm for 30 min.”
All chemicals were purchased from Sigma (St. Louis, Mo.). […] NADPH consumption was monitored kinetically by fluorescence (λEx=340 nm, λEm=460 nm) on an EnVision 2100 multilabel plate reader (Perkin Elmer, Waltham, Mass.). FASN enzyme activity (slope) in the presence of 4% DMSO was used as maximum control, whereas background (minimum control) was measured by omission of malonyl-CoA in the substrate mixture. […]
Compounds were assayed as inhibitors of human FASN using the above-described FASN Scintillation Proximity Flashplate Assay (IC50; nM) or FASN NADPH Consumption Assay (*) (IC50; nM). The corresponding activity of the isolated compound is also provided along with the measured mass (ES^+).

On to `CCN(C(=O)n1nnn(-c2c(F)cccc2F)c1=O)c1ccc(NC(=O)CCCCCNC(=O)CCCC[C@@H]2SC[C@@H]3NC(=O)N[C@@H]32)cc1F`, for which, at human FASN [1], the half-maximal inhibitory concentration (IC50) was below 15 nM. As to `N#CCN(C(=O)n1nnn(-c2c(F)cccc2F)c1=O)c1ccccc1`, the IC50 at human FASN [2] lay within 250 to 1000 nM.
